According to paper PMC4394352:

What was measured:
[1] = biological target: PPP1R15B(631–701)-MBP and PP1G(7–300) binary complex (human | mouse) (UniProt Q5SWA1)
[2] = biological target: PPP1R15A(539–614)-PP1G(7–323) binary complex (mouse) (UniProt P17564)
[3] = biological target: PPP1R15B(631–701)-MBP and PP1G(7–300) binary complex (human | mouse) (UniProt Q5SWA1); remark: listed apart in the source
[4] = biological target: PPP1R15A(539–614)-PP1G(7–323) binary complex (mouse) (UniProt P17564); experiment: SEC; ternary complex: stoichiometric binary complex on glutathione-sepharose resin incubated with latrunculin B-blocked G-actin 90–120 min at 4°C, eluted, TEV-cleaved, tandem Superdex 75/200 SEC; fractions on Coomassie-stained SDS-PAGE
[5] = biological target: PPP1R15B(631–701)-PP1G(7–323) binary complex (human | mouse) (UniProt Q5SWA1); experiment: as above

For “G-actin (rabbit muscle) (from UniProt P68135 1-377) (natural protein)”, the acceleration of eIF2a^P dephosphorylation (initial velocity, substrate 0.5–4 µM) by the ternary complex over the binary complex (Figure 4E) [1] was 16.5 fold, the concentration of G-actin for half maximal stimulation of eIF2a^P dephosphorylation by 16 nM PPP1R15A-PP1G (Figure 5A) [2] was < 100 nM and the concentration of G-actin for half maximal stimulation of eIF2a^P dephosphorylation by 68 nM PPP1R15B-PP1G (Figure 5A) [3] was < 100 nM. It also gave a stoichiometry N [4] of 1 and a stoichiometry N [5] of 1.
